Values joined by “and” are separate entries in the source; they are usually repeats but may differ in a detail not shown here. Equal entries are not always repeated. Active and inactive are the calls of the source. The calls are words filed in the database; no cut-off is given here.
Test system: not listed separately
Assay: Binding affinity ratio between kappa and delta receptor

Amino acid sequences for entries named in this document (tags omitted). A change or cut given only in a name is not applied to a line headed by its entry.
UniProt P41144: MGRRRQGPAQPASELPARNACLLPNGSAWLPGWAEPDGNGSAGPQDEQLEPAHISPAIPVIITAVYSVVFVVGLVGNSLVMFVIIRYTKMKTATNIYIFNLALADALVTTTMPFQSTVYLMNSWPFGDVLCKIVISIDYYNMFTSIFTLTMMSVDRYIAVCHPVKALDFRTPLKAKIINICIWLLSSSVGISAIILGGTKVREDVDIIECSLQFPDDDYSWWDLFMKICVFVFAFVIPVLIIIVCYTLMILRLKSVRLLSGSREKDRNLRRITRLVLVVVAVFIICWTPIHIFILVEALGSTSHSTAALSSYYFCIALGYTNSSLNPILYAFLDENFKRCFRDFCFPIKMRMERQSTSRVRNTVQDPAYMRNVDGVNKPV

Compound | Ratio
CCN(CC)C(=O)c1ccc(N(c2cccc(OC)c2)[C@@H]2CCN(C)C[C@H]2C)cc1 | 35
C/C=C/CN1CC[C@@H](N(c2ccc(C(=O)N(CC)CC)cc2)c2cccc(OC)c2)[C@@H](C)C1 | 414
C=CCN1C[C@H](C)[C@@H](N(c2ccccc2)c2ccc(C(=O)N(CC)CC)cc2)C[C@H]1C | 68
CCN(CC)C(=O)c1ccc(N(c2cccc(OC)c2)[C@@H]2CCN(C/C=C/c3ccccc3)C[C@@H]2C)cc1 | > 80
CCN(CC)C(=O)c1ccc(N(c2ccccc2)[C@@H]2CCN(CC3CC3)C[C@H]2C)cc1 | > 31
C=CCN1C[C@H](C)[C@H](N(c2ccccc2)c2ccc(C(=O)N(CC)CC)cc2)C[C@H]1C | 62
C=CCN1CC[C@@H](N(c2ccc(C(=O)N(CC)CC)cc2)c2cccc(O)c2)[C@@H](C)C1 | 41
C=C(C)CN1CC[C@@H](N(c2ccccc2)c2ccc(C(=O)N(CC)CC)cc2)[C@@H](C)C1 | > 210
C=CCN1C[C@H](C)[C@H](N(c2ccccc2)c2ccc(C(=O)N(CC)CC)cc2)C[C@@H]1C | 55
C=C(C)CN1CC[C@@H](N(c2ccc(C(=O)N(CC)CC)cc2)c2cccc(OC)c2)[C@@H](C)C1 | > 100
C=CCN1CC[C@@H](N(c2ccccc2)c2ccc(C(=O)N(CC)CC)cc2)[C@H](C)C1 | 69
CCN(CC)C(=O)c1ccc(N(c2cccc(OC)c2)[C@@H]2CCN(C)C[C@@H]2C)cc1 | > 43
CCN(CC)C(=O)c1ccc(N(c2ccccc2)[C@@H]2CCN(CC=C(C)C)C[C@@H]2C)cc1 | > 497
CCN(CC)C(=O)c1ccc(N(c2ccccc2)[C@@H]2CCN(C/C=C/c3ccccc3)C[C@@H]2C)cc1 | 200
CCN(CC)C(=O)c1ccc(N(c2cccc(OC)c2)[C@@H]2CCN(CC=C(C)C)C[C@@H]2C)cc1 | 170
CCN(CC)C(=O)c1ccc(N(c2ccccc2)[C@@H]2CCN(C)C[C@H]2C)cc1 | 24
C=CCN1CC[C@@H](N(c2ccc(C(=O)N(CC)CC)cc2)c2cccc(OC)c2)[C@@H](C)C1 | > 339
C/C=C/CN1CC[C@@H](N(c2ccccc2)c2ccc(C(=O)N(CC)CC)cc2)[C@@H](C)C1 | 602 and 1100
CCN(CC)C(=O)c1ccc(N(c2cccc(OC)c2)[C@@H]2CCN(CC3CC3)C[C@@H]2C)cc1 | > 210
CCN(CC)C(=O)c1ccc(N(c2ccccc2)[C@@H]2CCN(CC3CC3)C[C@@H]2C)cc1 | 120
CCN(CC)C(=O)c1ccc(N(c2ccccc2)[C@@H]2CCN(C)C[C@@H]2C)cc1 | > 132
C=CCN1CC[C@@H](N(c2ccc(C(=O)N(CC)CC)cc2)c2cccc(OC)c2)[C@H](C)C1 | 20
CCN(CC)C(=O)c1ccc(N(c2cccc(OC)c2)[C@@H]2CCN(CC3CC3)C[C@H]2C)cc1 | > 33

Biological target: Kappa-type opioid receptor (Cavia porcellus) (UniProt P41144)
Assay: Ability to stimulate binding to kappa-opioid receptor using GTP-gamma -S-binding assay in guinea pig caudate membranes, blocked with 6 nM nor-binaltorphimine (nor-BNI); NS=no stimulation

Compound | NS
CN(C(=O)Cc1ccccc1)[C@H]1CC[C@@]2(CCCO2)C[C@@H]1N1CCCC1 | inactive
